Data on three compounds can be found in ChEMBL document CHEMBL1142823, “Analysis of structure-activity relationships for the 'B-region' of N-(4-t-butylbenzyl)-N'-[4-(methylsulfonylamino)benzyl]-thiourea analogues as TRPV1 antagonists” (Bioorg Med Chem Lett, 2005).

Sequences of proteins named here, by UniProt entry; tags and fusion partners are left off.
UniProt O35433, whole entry: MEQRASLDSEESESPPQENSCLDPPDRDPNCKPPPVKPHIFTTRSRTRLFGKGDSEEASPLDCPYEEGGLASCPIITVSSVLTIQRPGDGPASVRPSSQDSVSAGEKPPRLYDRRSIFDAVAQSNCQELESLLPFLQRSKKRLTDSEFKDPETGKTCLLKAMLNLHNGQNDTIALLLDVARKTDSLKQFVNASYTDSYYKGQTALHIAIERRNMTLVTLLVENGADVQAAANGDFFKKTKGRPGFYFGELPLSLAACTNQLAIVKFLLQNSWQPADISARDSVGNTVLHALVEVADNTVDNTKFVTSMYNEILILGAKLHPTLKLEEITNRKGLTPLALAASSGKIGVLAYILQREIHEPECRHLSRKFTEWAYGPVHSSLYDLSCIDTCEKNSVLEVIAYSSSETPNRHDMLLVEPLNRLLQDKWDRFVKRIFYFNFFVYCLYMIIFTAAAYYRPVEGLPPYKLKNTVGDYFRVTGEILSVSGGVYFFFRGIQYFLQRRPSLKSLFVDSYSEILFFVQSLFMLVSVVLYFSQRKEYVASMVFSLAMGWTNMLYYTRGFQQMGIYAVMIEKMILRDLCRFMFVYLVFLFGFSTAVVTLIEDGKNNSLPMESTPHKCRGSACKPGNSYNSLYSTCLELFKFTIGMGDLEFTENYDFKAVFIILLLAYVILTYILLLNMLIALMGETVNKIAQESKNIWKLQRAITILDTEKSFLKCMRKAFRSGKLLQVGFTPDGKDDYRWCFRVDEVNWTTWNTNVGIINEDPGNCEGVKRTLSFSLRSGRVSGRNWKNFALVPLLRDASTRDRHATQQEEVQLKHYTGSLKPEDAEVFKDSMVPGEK

In the experiment the target is Transient receptor potential cation channel subfamily V member 1 (Rattus norvegicus, UniProt O35433). The experiment can be described thus: In vitro inhibition of [3H]RTX binding to rat TRPV1 expressed in CHO cells. The experiment is classed as cell-based.
The Ki is a dissociation constant, usually derived from enzyme kinetics or from competition with a known ligand. Low values mean higher affinity, high ones lower affinity. Consider `CC(C)(C)c1ccc(CNC(=S)NNc2ccc(NS(C)(=O)=O)cc2)cc1`, for which affinity was put at a Ki of 12100 nM.

`CC(C)(C)c1ccc(CN(O)C(=S)NCc2ccc(NS(C)(=O)=O)c([N+](=O)[O-])c2)cc1` returned a Ki of 1330 nM.

Turning to `CC(C)(C)c1ccc(CNC(=S)NCc2ccc(NS(C)(=O)=O)cc2)cc1`, the affinity, expressed as Ki, was 63 nM.
